# AlphaSeq binding of Ab-95 light chain variants to a spike HR2 peptide

Target: peptide PDVDLGDISGINAS, taken from heptad repeat 2 (HR2) of SARS-CoV-2 spike.

Ab-95 is the parent antibody, in scFv form: VH, then the linker GGGGSGGGGSGGGGS, then VL. The heavy chain is unchanged in all variants.
VH: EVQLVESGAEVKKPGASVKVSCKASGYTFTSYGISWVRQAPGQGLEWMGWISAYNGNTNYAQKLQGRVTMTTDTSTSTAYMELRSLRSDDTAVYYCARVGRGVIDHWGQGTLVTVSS
VL: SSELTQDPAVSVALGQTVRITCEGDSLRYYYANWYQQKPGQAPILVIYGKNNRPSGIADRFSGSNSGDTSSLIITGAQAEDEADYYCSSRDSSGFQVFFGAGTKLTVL

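AAYL52 was designed without a model: most single CDR substitutions and a random sample of double and triple ones. In AlphaSeq, yeast of one mating type display the scFv and yeast of the other type display the target. The frequency of each diploid, read from paired DNA barcodes, reflects how well the two displayed proteins bind. Read counts were normalised to the haploid input and turned into Kd by a linear fit to BCL2-family pairs of known affinity, for each replicate. The assay was run in three technical replicates.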

Substitutions are numbered in sequence along the VL above, starting at 1 (not Kabat).
All variants listed here change D91 of the VL, counted from its first residue.
Numbers give log10(Kd / nM), so 0 is 1 nM and 3 is 1 µM. Smaller is tighter.
A mean of the replicates is given; it leaves out those without a signal.
A pair that was not seen in that replicate is written "nd"; this usually means weak binding, but a binder can also be missed.
As a blank, each scFv also met three strains without target: over library AAYL52, 28% of these pairings were detected, typically at 3.91 and seldom below 2.90.

* D91L/F98P: 2.46, 2.16, 1.83 (mean 2.15)
* N52F/D91G: 2.66, 3.05, 2.86 (mean 2.86)
* R90W/D91Q: 1.90, 1.71, 1.48 (mean 1.70)
* D25K/S26Q/D91H: nd, 4.31, 2.91 (mean 3.61)
* R28I/A32L/D91T: 3.95, 4.32, nd (mean 4.14)
* N33E/D91Q/S92F: 3.79, 2.79, 3.49 (mean 3.36)
* E23L/Y31V/D91S: 2.90, 2.82, 2.16 (mean 2.63)
* D25Q/N51Y/D91R: 3.28, 3.26, 4.72 (mean 3.75)
* R28I/Y30T/D91M: nd, 3.38, nd
* S26C/S88D/D91M: 4.09, nd, 3.97 (mean 4.03)
* S88Q/D91P/G94W: nd, 3.28, nd
* N33C/D91H: nd, 3.52, 4.22 (mean 3.87)
* N51W/D91C/G94N: 3.62, nd, nd
* N33G/D91Q/S92N: 4.34, 4.50, nd (mean 4.42)
* N33T/S88A/D91F: 3.26, nd, nd
* R28V/D91C/V97S: nd, 4.24, nd
* N52T/D91I/F98H: nd, nd, 3.51
* D91Y: nd, 3.58, nd
* Y31D/S89K/D91H: 2.40, 2.40, 2.13 (mean 2.31)
* A32E/R90D/D91Y: nd, nd, nd
* D91K/F95P/Q96I: 3.84, nd, nd
* Y31R/S88D/D91G: nd, 3.73, nd
* D91A: 5.16, 2.73, 2.22 (mean 3.37)
* S88H/D91S/S93R: 2.74, 2.49, 2.61 (mean 2.61)
* R53W/D91W/S92C: 3.23, 4.34, nd (mean 3.78)
* K50E/D91T/V97F: nd, 3.38, nd
* G49V/D91M/S92D: 4.62, 5.25, nd (mean 4.93)
* N52Y/D91P/V97G: 4.36, nd, 1.27 (mean 2.81)
* D25M/R28Y/D91I: nd, nd, 3.05
* G24Q/R53L/D91R: nd, 5.50, 4.52 (mean 5.01)
* Y31W/D91F/Q96E: 2.87, 2.85, 2.87 (mean 2.86)
* P54Q/S89Q/D91W: nd, 3.93, nd
* D91Q/Q96V/F98S: nd, nd, nd
* P54A/S55L/D91N: 2.98, 3.61, 3.71 (mean 3.43)
* N52K/D91P/F95V: 5.20, nd, 3.68 (mean 4.44)
* G49C/N51E/D91C: 3.83, nd, nd
* R53A/D91H/S92T: nd, 3.29, 4.10 (mean 3.69)
* Y29T/D91T/G94W: 3.95, nd, nd
* R90G/D91K/S93T: 2.08, 2.13, 1.77 (mean 1.99)

The first 3 entries again:

changes,"log10 Kd, replicates","log10 Kd (nM), mean"
D91L/F98P,"2.46, 2.16, 1.83",2.15
N52F/D91G,"2.66, 3.05, 2.86",2.86
R90W/D91Q,"1.90, 1.71, 1.48",1.70

Values reported by Engelhart et al. 2022, doi:10.1038/s41597-022-01779-4 (FLAb copy).